For 59 molecules, inhibition results are on record in PubChem BioAssay AID1778 (Sanford-Burnham Center for Chemical Genomics, 2009).

Amino acid sequences for entries named in this document (tags omitted). A change or cut given only in a name is not applied to a line headed by its entry.
UniProt P41145: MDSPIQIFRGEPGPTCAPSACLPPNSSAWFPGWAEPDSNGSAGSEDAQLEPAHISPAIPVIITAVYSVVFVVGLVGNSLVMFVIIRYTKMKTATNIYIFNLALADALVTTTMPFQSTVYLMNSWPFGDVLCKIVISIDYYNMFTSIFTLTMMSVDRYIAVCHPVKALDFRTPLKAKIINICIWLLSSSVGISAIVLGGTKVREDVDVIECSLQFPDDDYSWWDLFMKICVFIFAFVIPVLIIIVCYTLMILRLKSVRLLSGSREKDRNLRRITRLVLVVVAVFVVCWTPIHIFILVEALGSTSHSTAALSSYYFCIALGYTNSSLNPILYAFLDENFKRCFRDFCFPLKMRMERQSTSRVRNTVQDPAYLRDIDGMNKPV

The other results are listed elsewhere or left out. Entries with a potency or affinity are not part of this list. Active and inactive are the calls of the source. Cut-off read from the data, not from the text of the source: active = inhibition above about 50%; inactive = the rest.

For the assay, the target named is Kappa-type opioid receptor (Homo sapiens) (UniProt P41145). The assay can be described thus: KOR antagonists, beta-arrestin recruitment, cell-based, luminescence, uHTS (AID 1778). The conditions noted are these: antagonist mode, at 10 µM, active compounds read high. Background: Activated receptors often draw arrestin, which recruitment assays turn into a signal.
On to `CCN(CC)CCn1c(=N)n(CC(O)c2ccco2)c2ccccc21` (centres undefined), for which the inhibition is inactive: -5.9%.
`C=CCc1cccc(CNc2nc3ccccc3n2CCN2CCOCC2)c1O`: the inhibition was inactive: 23.5%.
For the molecule `Cn1c(=O)[nH]c(=O)c2c1nc(CN1CCN(c3ccccc3F)CC1)n2CC(N)=O`, the inhibition was inactive: 28.6%.
On to `Cc1nc2cc(C(F)(F)F)ccc2n1C1CCN(Cc2nnnn2Cc2ccc3c(c2)OCO3)CC1`, for which the inhibition is inactive: -138%.
`Cn1c(=O)[nH]c(=O)c2c1nc(NC1CCCCC1)n2CC(=O)NC1CCCCC1`: the inhibition is inactive: 29.9%.
As to `CC1CN(Cc2nc3c(c(=O)[nH]c(=O)n3C)n2CC(N)=O)CC(C)O1` (centres undefined), the inhibition is inactive: -0.7%.
The value for `Cc1ccc(CNC(=O)CCNC(=O)N2CCn3c2nc2ccccc23)cc1` was inactive: -40.7%; that for `COc1ccc(CNc2nc3ccccc3n2CCN2CCCCC2)c(OC)c1` was inactive: 28.8%.
Turning to `c1ccc(CN2CCC3(CC2)Nc2ccccc2S3)cc1`, the inhibition is inactive: 18%.
As for `COc1ccc(N2CCn3c2nc2c3c(=O)n(CCCc3ccccc3)c(=O)n2C)c(OC)c1`, the inhibition is inactive: -25.9%.
In the case of `COc1ccccc1CNc1nc2ccccc2n1CCN1CCCCC1`, the inhibition is inactive: -14.8%.
Regarding `CCSc1nnc(NC(=O)Cn2cnc3c2c(=O)n(C)c(=O)n3C)s1`, the inhibition was inactive: -29.1%.
`COc1ccc(CNC(=O)Cn2cnc3c(=O)n(C)c(=O)n(C)c32)cc1`: the inhibition is inactive: -86.9%.
For the molecule `Cc1ccc2c(c1)[C@@H]1CN(C)CC[C@@H]1N2S(=O)(=O)c1ccc(F)cc1`, the inhibition was inactive: -14.8%.
Then `O=C(Nc1cc([As](=O)(O)O)ccc1O)c1ccccc1`, with inactive: 4.9%; and `Cn1c(=O)n(CC(=O)Nc2ccccc2)c2ccccc21`, with inactive: -4.3%; and `O=C(c1ccco1)N1CCn2c1nc1ccccc12`, with inactive: -2.3%.
Regarding `COc1ccc(Cc2nc3ccccc3n2CC(=O)N/N=C/c2ccccc2)cc1OC`, the inhibition is inactive: 47.1%.
Regarding `CC(C)(C)NC(=O)Cn1c(SCC(=O)N2CCCCCC2)nc2ccccc21`, the inhibition was inactive: 8.4%.
On to `CSCC[C@H](NC(=O)N1CCn2c1nc1ccccc12)C(=O)NCc1ccco1`, for which the inhibition is inactive: -25.9%.
For `Cc1ccc2c(c1)C1CN(C)CCC1N2C(=O)Nc1cccc(C(F)(F)F)c1` (centres undefined), the inhibition is inactive: -33.4%.
The value for `O=[N+]([O-])c1cc(C(F)(F)F)ccc1NC1CCN(Cc2ccccc2)CC1` was inactive: 9.9%.
Then `CC(C)C[C@H](NC(=O)N1CCn2c1nc1ccccc12)C(=O)NCC1CCCO1` (some centres undefined), with inactive: -41.1%; and `O=[N+]([O-])c1ncn(CCn2ncnc2[N+](=O)[O-])n1`, with inactive: 6.2%.
Take `CCCn1c(=O)[nH]c(=O)c2c1nc(-c1ccc(OC(F)F)cc1)n2CCN1CCOCC1`: the inhibition is inactive: -21.6%.
Consider `Cn1c(=O)c2ncn(CC(=O)Nc3nc(-c4ccc(Cl)cc4)cs3)c2n(C)c1=O`, for which the inhibition is inactive: 2.8%.
As for `CCCCc1nc2ccccc2n1CC(=O)NN`, the inhibition was inactive: 7.6%.
As for `c1ccc(CN2CCC(Nc3ncnc4sccc34)CC2)cc1`, the inhibition is inactive: 3.9%.
The value for `CC(C)(C)C(=O)NC(Sc1ccncn1)C(Cl)(Cl)Cl` (centres undefined) was inactive: 10.1%; that for `CCN(Cc1ccccc1)C(=O)Cn1c(C(C)O)nc2ccccc21` (centres undefined) was inactive: -44.4%; that for `Cn1c(=O)c2c(ncn2CC(=O)NC(C)(C)C)n(C)c1=O` was inactive: 0.4%.
For `Cn1c(=O)c2c(ncn2CC(=O)Nc2ccc(N3CCOCC3)cc2)n(C)c1=O`, the inhibition was inactive: 40.8%.
As for `CSc1nc2ccccc2n1CC(=O)N1CCCCC1`, the inhibition is inactive: -8.5%.
With `CC(C)OC(=O)c1ccc(NC(=O)Cn2c(-c3nonc3N)nc3ccccc32)cc1`, the inhibition was inactive: -19.5%.
The value for `Cc1nn(CC(=O)Nc2ccc3c(c2)nc2n3CCN(C3CCCCC3)C2)c(=O)c2ccccc12` was inactive: -24.8%; that for `Cc1noc(C)c1S(=O)(=O)N(CC(=O)N1CCn2c1nc1ccccc12)c1ccc(C(C)C)cc1` was inactive: 46.1%.
As to `O=[N+]([O-])c1ccc(NC2CCN(Cc3ccccc3)CC2)c2ccncc12`, the inhibition was inactive: -16.5%.
Then `CCOC(=O)N1CCN(c2c(NC3CCN(Cc4ccccc4)CC3)c(=O)c2=O)CC1`, with inactive: -22.2%; and `CC(C)Sc1nc2ccccc2n1CC(N)=O`, with inactive: 22.2%.
As to `O=C(Cn1cnc2ccccc21)N1CCN(S(=O)(=O)c2ccccc2)CC1`, the inhibition is inactive: -0.2%.
For `CN(C)C1(c2nnnn2-c2ccc(Cl)cc2)CCCCC1`, the inhibition is inactive: 20.2%.
Then `COC(=O)c1ccc(N2C(=O)CC(N3CCC(n4c(=O)[nH]c5ccccc54)CC3)C2=O)cc1` (centres undefined), with inactive: 23.3%.
As for `COc1cccc(NC(=O)Cn2c(-c3cncs3)nc3ccccc32)c1`, the inhibition is inactive: 7.9%.
In the case of `COc1cccc(CNC(=O)CCNC(=O)N2CCn3c2nc2ccccc23)c1`, the inhibition was inactive: -8.3%.
In the case of `O=C1CCC(=O)N1c1ccc(NC2CCN(Cc3ccccc3)CC2)c([N+](=O)[O-])c1`, the inhibition was inactive: 20.9%.
Turning to `O=C(c1ccccc1Br)N1CCn2c1nc1ccccc12`, the inhibition was inactive: -2.8%.
As to `Cc1cccc(NC(=O)Cn2c(/C=C/c3ccccc3)nc3ccccc32)c1`, the inhibition is inactive: -23%.
For the molecule `O=C(O)CNc1ccc([As](=O)(O)O)cc1`, the inhibition was inactive: 22.2%.
Turning to `O=S(=O)(Cc1ccccc1)N1CCn2c(nc3ccccc32)C1`, the inhibition was inactive: -9.6%.
Regarding `CCN(CC)S(=O)(=O)c1ccc(NC2CCN(Cc3ccccc3)CC2)nc1`, the inhibition is inactive: -18.3%.
As for `CC1CCCN(Cc2nc3c(c(=O)n(C)c(=O)n3C)n2CC(N)=O)C1` (centres undefined), the inhibition was inactive: 5.4%.
The value for `CN1CCN(c2nc3c(c(=O)n(C)c(=O)n3C)n2CC(N)=O)CC1` was inactive: -49.6%; that for `CN1CCC2(CC1)NC(=O)c1ccccc1N2` was inactive: -30.2%.
Then `O=[N+]([O-])c1cccc(NC2=NCC(CBr)S2)c1` (centres undefined), with inactive: 20.8%; and `COc1ccc(Cc2nc3ccccc3n2CC(=O)N/N=C/c2ccc(O)cc2)cc1OC`, with inactive: -6.1%; and `Cc1ccc2c(c1)C1CN(C)CCC1N2C(=O)COc1ccccc1F` (centres undefined), with inactive: 2.7%.
Turning to `CCOC(=O)Nc1ccc([As](=O)(O)O)c(O)c1`, the inhibition is inactive: 11.4%.
In the case of `Nc1ncnc2c1ncn2CCNCCc1ccccc1`, the inhibition is inactive: 6.5%.
In the case of `O=C(Cn1c(C(F)(F)F)nc2ccccc21)NCCCN1CCOCC1`, the inhibition was inactive: -17.2%.

As a reminder, the inhibition is the drop in the measured response relative to a control, in per cent.
